{"source": "paper PMC5485989", "about": "“Role of Free Radicals and Biotransformation in Trichloronitrobenzene-Induced Nephrotoxicity In Vitro” (International Journal of Molecular Sciences, 2017)", "origin": "cited, not measured here", "test_system": "Fisher 344 rats", "details": "cited from earlier work", "data": [{"substance": "2-chloronitrobenzene", "values": [{"measurement": "Renal tumours and nephropathy", "setting": "feeding to Fisher 344 rats", "value": "increased the number of renal cell adenomas in females and renal carcinomas in males and exacerbated age-related chronic progressive nephropathy in males"}, {"measurement": "Death of male rats", "setting": "feeding, 2000 ppm level", "value": "47 of 50"}]}]}
